This is a selection: effects in other tests are not listed, and their absence says nothing.
Test: Selectivity ratio of IC50 for cytotoxicity against human MES-SA cells assessed as cell growth inhibition to IC50 for cytotoxicity against multidrug resistance human MES-SA/Dx5 cells assessed as cell growth inhibition

With `Oc1c(CN(CCCl)CCCl)ccc2cccnc12` the Ratio IC50 was 0.91.
